# CycPeptMPDB entries from one study

Collected by the curators of CycPeptMPDB (Li et al. 2023) from Furukawa et al. 2016, doi:10.1021/acs.jmedchem.6b01246.

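The data file gives no further conditions (lipid, pH, time, direction or concentration), and values from different papers need not be comparable. The list need not hold all peptides of the study. Peptides that the database sets to -10, its floor, are left out.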

PAMPA is the parallel artificial membrane permeability assay, which has no cells and reads passive diffusion. P is given in units of 10^-6 cm/s (from log10 values with two decimals); larger means faster passage.

CCCCCN1CC(=O)N(C)[C@H](CC(C)C)C(=O)N[C@@H](CCCC)C(=O)N2CCC[C@@H]2C(=O)N(CC)CC(=O)N[C@@H](Cc2ccccc2)C1=O has PAMPA 7.8 × 10^-6 cm/s. CCCC[C@@H]1NC(=O)[C@H](CC(C)C)NC(=O)CN(CC2CCCCC2)C(=O)[C@H](Cc2ccccc2)NC(=O)CN(CCCOC(C)C)C(=O)[C@H]2CCCN2C1=O has PAMPA 9.3 × 10^-6 cm/s. CCCC[C@@H]1NC(=O)[C@H](CC(C)C)N(C)C(=O)CN(CC2CCCCC2)C(=O)[C@H](Cc2ccccc2)NC(=O)CN(CCCOC(C)C)C(=O)[C@@H]2CCCN2C1=O is reported with PAMPA 4.1 × 10^-6 cm/s. The entry for CCCC[C@@H]1NC(=O)[C@@H](CC(C)C)NC(=O)CN(CC2CCCCC2)C(=O)[C@@H](Cc2ccccc2)NC(=O)CN(CC)C(=O)[C@@H]2CCCN2C1=O lists PAMPA 9.1 × 10^-6 cm/s. CCCCCN1CC(=O)N(C)[C@H](CC(C)C)C(=O)N[C@@H](CCCC)C(=O)N2CCC[C@H]2C(=O)N(CC)CC(=O)N[C@H](Cc2ccccc2)C1=O has PAMPA 11 × 10^-6 cm/s. The entry for CCCC[C@@H]1NC(=O)[C@H](CC(C)C)NC(=O)CN(CC2CCOCC2)C(=O)[C@@H](C)NC(=O)CN(CCCOC(C)C)C(=O)[C@@H]2CCCN2C1=O lists PAMPA 0.012 × 10^-6 cm/s. The entry for CCCCCN1CC(=O)N[C@H](CC(C)C)C(=O)N[C@@H](CCCC)C(=O)N2CCC[C@@H]2C(=O)N(CCCOC(C)C)CC(=O)N[C@@H](Cc2ccccc2)C1=O lists PAMPA 15 × 10^-6 cm/s. CCCC[C@@H]1NC(=O)[C@H](CC(C)C)NC(=O)CN(CC2CCOCC2)C(=O)[C@@H](Cc2ccccc2)NC(=O)CN(CC)C(=O)[C@H]2CCCN2C1=O is reported with PAMPA 0.1 × 10^-6 cm/s.

Listed for CCCC[C@@H]1NC(=O)[C@@H](CC(C)C)N(C)C(=O)CN(CC2CCOCC2)C(=O)[C@@H](Cc2ccccc2)NC(=O)CN(CCCOC(C)C)C(=O)[C@H]2CCCN2C1=O: PAMPA 5.5 × 10^-6 cm/s. CCCC[C@@H]1NC(=O)[C@H](CC(C)C)NC(=O)CN(CC2CCCCC2)C(=O)[C@@H](C)NC(=O)CN(CCCOC(C)C)C(=O)[C@H]2CCCN2C1=O has PAMPA 1.4 × 10^-6 cm/s. For CCCC[C@@H]1NC(=O)[C@H](CC(C)C)N(C)C(=O)CN(CC2CCCCC2)C(=O)[C@@H](Cc2ccccc2)NC(=O)CN(Cc2ccc3c(c2)OCO3)C(=O)[C@H]2CCCN2C1=O the data give PAMPA 1.6 × 10^-6 cm/s. Listed for CCCC[C@@H]1NC(=O)[C@H](CC(C)C)N(C)C(=O)CN(CC2CCOCC2)C(=O)[C@@H](C)NC(=O)CN(CC)C(=O)[C@@H]2CCCN2C1=O: PAMPA 0.028 × 10^-6 cm/s. CCCCCN1CC(=O)N(C)[C@@H](CC(C)C)C(=O)N[C@@H](CCCC)C(=O)N2CCC[C@H]2C(=O)N(Cc2ccc3c(c2)OCO3)CC(=O)N[C@H](C)C1=O is reported with PAMPA 7.2 × 10^-6 cm/s. For CCCCCN1CC(=O)N[C@H](CC(C)C)C(=O)N[C@@H](CCCC)C(=O)N2CCC[C@@H]2C(=O)N(Cc2ccc3c(c2)OCO3)CC(=O)N[C@@H](Cc2ccccc2)C1=O the data give PAMPA 5.9 × 10^-6 cm/s. CCCC[C@@H]1NC(=O)[C@H](CC(C)C)NC(=O)CN(CC2CCOCC2)C(=O)[C@@H](C)NC(=O)CN(CC)C(=O)[C@@H]2CCCN2C1=O is reported with PAMPA 0.0013 × 10^-6 cm/s. CCCC[C@@H]1NC(=O)[C@@H](CC(C)C)N(C)C(=O)CN(CC2CCOCC2)C(=O)[C@H](Cc2ccccc2)NC(=O)CN(CC)C(=O)[C@@H]2CCCN2C1=O is reported with PAMPA 3.5 × 10^-6 cm/s.

The entry for CCCC[C@@H]1NC(=O)[C@@H](CC(C)C)NC(=O)CN(CC2CCOCC2)C(=O)[C@@H](Cc2ccccc2)NC(=O)CN(CC)C(=O)[C@@H]2CCCN2C1=O lists PAMPA 0.11 × 10^-6 cm/s. Listed for CCCC[C@@H]1NC(=O)[C@@H](CC(C)C)NC(=O)CN(CC2CCOCC2)C(=O)[C@H](Cc2ccccc2)NC(=O)CN(CCCOC(C)C)C(=O)[C@H]2CCCN2C1=O: PAMPA 4.6 × 10^-6 cm/s. Listed for CCCC[C@@H]1NC(=O)[C@H](CC(C)C)NC(=O)CN(CC2CCOCC2)C(=O)[C@H](Cc2ccccc2)NC(=O)CN(CC)C(=O)[C@@H]2CCCN2C1=O: PAMPA 0.43 × 10^-6 cm/s.

Repeated from above, the 2 entries with the highest PAMPA:

For CCCCCN1CC(=O)N[C@H](CC(C)C)C(=O)N[C@@H](CCCC)C(=O)N2CCC[C@@H]2C(=O)N(CCCOC(C)C)CC(=O)N[C@@H](Cc2ccccc2)C1=O the data give PAMPA 15 × 10^-6 cm/s.
For CCCCCN1CC(=O)N(C)[C@H](CC(C)C)C(=O)N[C@@H](CCCC)C(=O)N2CCC[C@H]2C(=O)N(CC)CC(=O)N[C@H](Cc2ccccc2)C1=O the data give PAMPA 11 × 10^-6 cm/s.